In PMC7723054:
Some of the results follow.

T1: LIN28A (human?, UniProt Q9H9Z2 1-209)
T1 sequence: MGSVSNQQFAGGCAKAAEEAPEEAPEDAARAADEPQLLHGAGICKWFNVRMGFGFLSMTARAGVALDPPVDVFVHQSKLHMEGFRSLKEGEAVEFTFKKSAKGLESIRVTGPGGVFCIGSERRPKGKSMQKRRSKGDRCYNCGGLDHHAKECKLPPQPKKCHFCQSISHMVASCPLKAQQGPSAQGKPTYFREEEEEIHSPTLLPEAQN

T2: CIRBP (Homo sapiens, UniProt Q14011 1-172)
T2 sequence: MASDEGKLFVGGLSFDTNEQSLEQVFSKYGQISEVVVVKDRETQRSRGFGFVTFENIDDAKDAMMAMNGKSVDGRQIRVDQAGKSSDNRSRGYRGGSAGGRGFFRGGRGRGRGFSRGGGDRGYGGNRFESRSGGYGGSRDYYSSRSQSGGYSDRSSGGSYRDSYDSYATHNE

T3: DHX36 (Homo sapiens, UniProt Q9H2U1 1-1008)
T3 sequence: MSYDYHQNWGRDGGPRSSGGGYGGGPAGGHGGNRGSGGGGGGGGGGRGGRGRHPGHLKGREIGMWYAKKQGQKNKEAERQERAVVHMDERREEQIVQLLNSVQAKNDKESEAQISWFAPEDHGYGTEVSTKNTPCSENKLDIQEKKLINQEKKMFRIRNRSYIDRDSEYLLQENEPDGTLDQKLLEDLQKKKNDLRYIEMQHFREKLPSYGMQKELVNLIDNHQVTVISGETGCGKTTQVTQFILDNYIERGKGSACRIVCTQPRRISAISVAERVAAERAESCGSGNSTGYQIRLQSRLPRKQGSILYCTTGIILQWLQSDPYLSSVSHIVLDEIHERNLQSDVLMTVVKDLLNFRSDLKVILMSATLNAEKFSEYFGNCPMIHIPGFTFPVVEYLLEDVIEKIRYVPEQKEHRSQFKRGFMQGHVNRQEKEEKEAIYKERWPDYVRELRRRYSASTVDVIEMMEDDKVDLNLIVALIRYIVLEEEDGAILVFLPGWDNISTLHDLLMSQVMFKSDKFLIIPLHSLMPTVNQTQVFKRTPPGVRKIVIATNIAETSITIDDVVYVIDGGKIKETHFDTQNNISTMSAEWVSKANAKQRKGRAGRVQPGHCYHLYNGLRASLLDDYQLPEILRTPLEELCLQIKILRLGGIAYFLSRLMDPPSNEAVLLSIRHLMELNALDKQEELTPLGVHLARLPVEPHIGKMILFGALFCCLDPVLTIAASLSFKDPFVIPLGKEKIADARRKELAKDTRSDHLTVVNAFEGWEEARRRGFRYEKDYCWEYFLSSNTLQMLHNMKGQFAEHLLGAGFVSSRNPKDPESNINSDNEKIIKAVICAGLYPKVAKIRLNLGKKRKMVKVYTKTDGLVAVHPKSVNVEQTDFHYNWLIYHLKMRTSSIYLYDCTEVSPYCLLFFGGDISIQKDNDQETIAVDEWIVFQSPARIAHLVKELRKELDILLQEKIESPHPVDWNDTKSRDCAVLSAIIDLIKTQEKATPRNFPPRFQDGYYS

B1: hsa-mir-6129 (structured_RNA)
RNA: GGGACGGUCGACUCGGCAUGCUUCUACAGGUGUACGAAGUUUCAGCUAUAGGAAGGAAAUCUUAUGCUGAAGCUUCGUGCAC
B2: hsa-mir-5694 (structured_RNA)
RNA: GGGACACGUGGGGUCCCCUGAUUUCAAAGGUGUACGAAGUUUCAGCUCAGCCCCAUAUGUAUCUGAAGGCUGAGCUGAAGCUUCGUGCAC
B3: hsa-mir-4718 (structured_RNA)
RNA: GGGAAGGGACAGCAUACUACCGUUGUUCGGUGUACGAAGUUUCAGCGCACCUGUUUGUGACGCUGAAGCUUCGUGCAC
B4: hsa-mir-8079 (structured_RNA)
RNA: GGGAACUAUGCCCGAGAGACCUGUACCGGGUGUACGAAGUUUCAGCUGGCUGUAGGGCAGCAGUCAGCUGAAGCUUCGUGCAC
B5: hsa-mir-579 (structured_RNA)
RNA: GGGAGCCCCGACAUAGAAUAGCCUUGAGGGUGUACGAAGUUUCAGCGACGAUUUGAAUUAAUAAAUUCGCUGAAGCUUCGUGCAC
B6: hsa-mir-449b (structured_RNA)
RNA: GGGAACGCGGGUACAUUACUCCCUGAUAGGUGUACGAAGUUUCAGCUGGCUGCUUGGGUCAAGUCAGCAGCCAGCUGAAGCUUCGUGCAC
B7: hsa-mir-4649 (structured_RNA)
RNA: GGGACUGGAAUGCCAUGGAGGCGAUUUAGGUGUACGAAGUUUCAGCCAGAGGGGCUGGCAGUACUGCUCUGGCUGAAGCUUCGUGCAC
B8: hsa-mir-29b-2 (structured_RNA)
RNA: GGGAACUUUCUGGCCCGUGGAUACACUCGGUGUACGAAGUUUCAGCCUUAGAUUUUUCCAUCUUUGUAUCUAGGCUGAAGCUUCGUGCAC
B9: hsa-mir-4484 (structured_RNA)
RNA: GGGAAGCAAAUGUAGGCACGUGAGGACCGGUGUACGAAGUUUCAGCUUUUUUUCCAAUGAAAAUAACGAAACCUGUUAUUUCCCAUUGAGGGGGAAAAAGCUGAAGCUUCGUGCAC
B10: hsa-mir-8072 (structured_RNA)
RNA: GGGAAGGGGAGAAAGCCUUCUAAUCGAUGGUGUACGAAGUUUCAGCGCAGAGCAGGACGCCGCUGCUGCGCUGAAGCUUCGUGCAC
B11: hsa-mir-6734 (structured_RNA)
RNA: GGGAAACCUGCAUAUGUGGUCGCUCAUCGGUGUACGAAGUUUCAGCAGAAGCCCAGGUUCUGAAUCCCCUGCUGAAGCUUCGUGCAC
B12: hsa-mir-1322 (structured_RNA)
RNA: GGGAAUAGAUGUUGGGGACGGUUUCGAGGGUGUACGAAGUUUCAGCAGAAACCUACUUAUUACAUAGUUUACAUAAGAAGCGUGAUGCUGAAGCUUCGUGCAC
B13: hsa-mir-4739 (structured_RNA)
RNA: GGGACCGUCUAUAGCGCCUACGAUGCAUGGUGUACGAAGUUUCAGCCCCUUGUCUUCCCAGAGGCUGAAGCUUCGUGCAC

target: T1, LIN28A; assay: FOREST: bead pull-down of RNA structure library v1, barcode microarray; U1A/LIN28A: 20 mM HEPES pH 7.5, 80 mM KCl, 20 mM NaCl, 10% glycerol, 2 mM DTT, 0.1 ug/uL BSA, 4 C; BG4/CIRBP/DHX36: 10 mM Tris-HCl pH 7.5, 100 mM KCl (or LiCl),; high values mean tight binding

Binder | binding signal [z-score]
B1 | 0.0885
B2 | 0.0874
B3 | 0.0647
B4 | 0.0485
B5 | 0.0454
B6 | 0.0758
B7 | 0.0432
B8 | 0.0548
B9 | 0.0519
B10 | 0.0803
B11 | 0.0441
B12 | 0.076
B13 | 0.0756

target: T2, CIRBP; assay: as above

Binder | binding signal [z-score]
B1 | 0.486
B2 | -1.92
B3 | -0.397
B4 | 0.104
B5 | -0.0194
B6 | -0.338
B7 | -0.624
B8 | 0.473
B9 | 0.118
B10 | -1.29
B11 | 0.05
B12 | -0.437
B13 | -0.0505

target: T3, DHX36; assay: as above

Binder | binding signal [z-score]
B1 | -0.412
B2 | -1.17
B3 | -0.108
B4 | 0.693
B5 | -0.666
B6 | 0.387
B7 | 0.404
B8 | -0.188
B9 | -0.00798
B10 | -1.13
B11 | 0.417
B12 | -0.996
B13 | -0.129
